The assay addresses κ-opioid receptor (KOR) (Homo sapiens, UniProt P41145). Type of assay: binding. Particulars: vs 4a.

By UniProt entry, the sequences of proteins in these tests, tags left out. Where a name states a change or a piece, a line headed by the entry shows the natural chain unless it says otherwise.
UniProt P41145: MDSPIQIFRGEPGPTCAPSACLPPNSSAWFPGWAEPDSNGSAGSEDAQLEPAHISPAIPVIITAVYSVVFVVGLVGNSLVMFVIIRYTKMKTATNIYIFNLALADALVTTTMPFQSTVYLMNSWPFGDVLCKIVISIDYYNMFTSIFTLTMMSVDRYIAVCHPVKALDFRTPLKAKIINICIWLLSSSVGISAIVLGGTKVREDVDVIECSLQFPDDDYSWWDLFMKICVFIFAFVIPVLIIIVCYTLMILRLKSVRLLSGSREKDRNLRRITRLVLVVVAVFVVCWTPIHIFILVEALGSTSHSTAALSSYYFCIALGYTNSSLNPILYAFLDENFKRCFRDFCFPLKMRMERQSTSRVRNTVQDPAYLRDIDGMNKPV

Molecules are shown by their SMILES.

Turning to `C=CCC(=O)O[C@H]1C[C@@H](C(=O)OC)[C@]2(C)CC[C@H]3C(=O)O[C@H](c4ccoc4)C[C@]3(C)[C@H]2C1=O` [4f, 2-O-(3′-Butenoyl)salvinorin B], the “fold increased KOR affinity compared to 4a” value was 2 fold.

The values are drawn from publication PMC4162805 (European journal of medicinal chemistry, 2014).
